This test concerns the target T1, human proteasome activator 200 (PA200) (human, UniProt Q14997).
T1 construct: Carries the cofactors 5,6[PP]2-InsP4 and InsP6 in its two openings; The results say 1,844 residues, the methods 1-1,843; source: Trichoplusia ni (Hi5) insect cells, baculovirus (Bac-to-Bac), purified (Ni-NTA, gel filtration on Superose 6)
Description: cryo-EM structure; 3 μl 20S-CP (approximately 1.4 mg/ml) incubated with 6 μl PA200 (approximately 0.44 mg/ml) in ice for 1 h; single-capped PA200-20S particles selected; 2.72 Å. Conditions: both partners purified.

Here are results for one molecule from publication PMC7077846 (PLoS Biology, 2020).

B1: human 20S proteasome subunit α6 (natural protein)
chain: MFRNQYDNDVTVWSPQGRIHQIEYAMEAVKQGSATVGLKSKTHAVLVALKRAQSELAAHQKKILHVDNHIGISIAGLTADARLLCNFMRQECLDSRFVFDRPLPVSRLVSLIGSKTQIPTQRYGRRPYGVGLLIAGYDDMGPHIFQTCPSANYFDCRAMSIGARSQSARTYLERHMSEFMECNLNELVKHGLRALRETLPAEQDLTTKNVSIGIVGKDLEFTIYDDDDVSPFLEGLEERPQRKAQPAQPADEPAEKADEPMEH
notes: 20S proteasome subunit α6, human; named only as α6; Stood in the experiment as a subunit of the whole 20S core particle; source: bought: Boston Biochem, as part of the human 20S proteasome
Turning to B1, the binding result was “binds”.
